In experiment [1] the test system is CBE-N2a cells. Nature of the experiment: Seahorse mitochondrial function assay (OCR) in cells. The format is cell-based, mouse. To be noted: CBE-N2a cells vs untreated CBE-N2a; dantrolene 12.5 μM, G6 0.8 μM.
Experiment [2] deals with GCase. To be noted: 12.5 uM, 5 days.

Where two headings read alike, the source gives them in different places.

On to `O=C1CN(/N=C/c2ccc(-c3ccc([N+](=O)[O-])cc3)o2)C(O)=N1` [Dantrolene], for which the “Oxygen Consumption Rate (OCR: ATP production, basal respiration, maximal respiration)” value in experiment [1] is recorded as “significantly improved”. Also, the “GCase activity compared to untreated cells” value in experiment [2] (4L/4L (V493L/V394L) fibroblasts) was “significantly increased”; in experiment [2] (4L;C* fibroblasts) it was “significantly increased”; in experiment [2] (9H/9H (D409H/D409H) fibroblasts), “significantly increased”; in experiment [2] (9V/9V (D409V/D409V) fibroblasts) it was “did not show an increase”; in experiment [2] (WT fibroblasts), “significantly increased”.

Source of the values: patent US10751387B2, “Pharmacological therapy for neuronopathic Gaucher disease” (priority 2016, dated 2020).
